Two compounds from paper PMC7587356, “High-Throughput Screening for Inhibitors of the SARS-CoV-2 Protease Using a FRET-Biosensor” (Molecules, 2020) can be followed below.

The structures appear in SMILES notation.

The test addresses SARS-CoV-2 3CLpro (Severe acute respiratory syndrome coronavirus 2, UniProt P0DTD1). As to conditions: sheet LOPAC_screen_w_protease, primary screen with protease, compound at 5 µM; for mean: mean of two replicates; for Replicate_1: replicate 1; for Replicate_2: replicate 2.

Consider `CCN1CCC[C@H]1CNC(=O)c1c(O)c(Cl)cc(Cl)c1OC.O=C(O)C(O)C(O)C(=O)O` (racemic) [S(+)-Raclopride L-tartrate], for which the mean was 3.077, the Replicate_1 stood at 3.795 and the Replicate_2 worked out at 2.359.

On to `CC(C(O)c1ccc(O)cc1)N1CCC(Cc2ccccc2)CC1.CC(C(O)c1ccc(O)cc1)N1CCC(Cc2ccccc2)CC1.O=C(O)C(O)C(O)C(=O)O` (stereo not drawn) [Ifenprodil tartrate], for which the mean came to 2.584, the Replicate_1 is recorded as 3.5123 and the Replicate_2 is given as 1.6558.
